Measurements published in patent EP0973746B1, “SUBSTITUTED 3-CYANO QUINOLINES” (Wyeth Holdings Corporation, priority 1997, dated 1998).
Values after ≈ are worked out from the molar mass of the structure shown. Where two headings read alike, the source gives them in different places.

The chains behind the UniProt entries cited, without tags or fusion partners. Residues count along the entry.
UniProt P29317, 24-976, species assumed: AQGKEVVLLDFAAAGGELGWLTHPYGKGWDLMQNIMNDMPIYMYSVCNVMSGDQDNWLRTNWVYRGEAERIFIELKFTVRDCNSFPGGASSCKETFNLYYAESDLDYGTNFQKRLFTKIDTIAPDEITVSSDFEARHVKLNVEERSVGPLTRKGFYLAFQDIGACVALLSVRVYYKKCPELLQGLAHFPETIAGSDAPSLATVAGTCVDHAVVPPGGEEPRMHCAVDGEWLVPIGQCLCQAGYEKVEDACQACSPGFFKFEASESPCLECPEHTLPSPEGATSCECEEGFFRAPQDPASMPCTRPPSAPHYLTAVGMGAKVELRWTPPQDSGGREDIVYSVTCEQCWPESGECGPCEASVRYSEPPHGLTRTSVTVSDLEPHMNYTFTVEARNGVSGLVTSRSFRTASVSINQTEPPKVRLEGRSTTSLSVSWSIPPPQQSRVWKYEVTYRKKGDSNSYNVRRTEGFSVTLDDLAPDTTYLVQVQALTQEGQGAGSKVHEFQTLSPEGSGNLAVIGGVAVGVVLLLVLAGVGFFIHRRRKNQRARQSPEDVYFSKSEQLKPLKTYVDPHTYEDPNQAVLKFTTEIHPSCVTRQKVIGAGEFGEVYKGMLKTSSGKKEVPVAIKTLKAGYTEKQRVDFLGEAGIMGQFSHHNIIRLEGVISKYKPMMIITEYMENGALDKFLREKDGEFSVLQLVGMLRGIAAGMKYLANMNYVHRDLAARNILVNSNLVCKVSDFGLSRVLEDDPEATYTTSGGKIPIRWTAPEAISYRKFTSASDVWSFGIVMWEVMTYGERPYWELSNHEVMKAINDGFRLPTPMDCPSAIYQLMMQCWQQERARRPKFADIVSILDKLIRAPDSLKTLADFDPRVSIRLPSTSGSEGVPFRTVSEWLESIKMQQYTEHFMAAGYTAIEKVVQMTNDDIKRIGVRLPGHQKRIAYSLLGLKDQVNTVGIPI
UniProt P00533, 25-1210: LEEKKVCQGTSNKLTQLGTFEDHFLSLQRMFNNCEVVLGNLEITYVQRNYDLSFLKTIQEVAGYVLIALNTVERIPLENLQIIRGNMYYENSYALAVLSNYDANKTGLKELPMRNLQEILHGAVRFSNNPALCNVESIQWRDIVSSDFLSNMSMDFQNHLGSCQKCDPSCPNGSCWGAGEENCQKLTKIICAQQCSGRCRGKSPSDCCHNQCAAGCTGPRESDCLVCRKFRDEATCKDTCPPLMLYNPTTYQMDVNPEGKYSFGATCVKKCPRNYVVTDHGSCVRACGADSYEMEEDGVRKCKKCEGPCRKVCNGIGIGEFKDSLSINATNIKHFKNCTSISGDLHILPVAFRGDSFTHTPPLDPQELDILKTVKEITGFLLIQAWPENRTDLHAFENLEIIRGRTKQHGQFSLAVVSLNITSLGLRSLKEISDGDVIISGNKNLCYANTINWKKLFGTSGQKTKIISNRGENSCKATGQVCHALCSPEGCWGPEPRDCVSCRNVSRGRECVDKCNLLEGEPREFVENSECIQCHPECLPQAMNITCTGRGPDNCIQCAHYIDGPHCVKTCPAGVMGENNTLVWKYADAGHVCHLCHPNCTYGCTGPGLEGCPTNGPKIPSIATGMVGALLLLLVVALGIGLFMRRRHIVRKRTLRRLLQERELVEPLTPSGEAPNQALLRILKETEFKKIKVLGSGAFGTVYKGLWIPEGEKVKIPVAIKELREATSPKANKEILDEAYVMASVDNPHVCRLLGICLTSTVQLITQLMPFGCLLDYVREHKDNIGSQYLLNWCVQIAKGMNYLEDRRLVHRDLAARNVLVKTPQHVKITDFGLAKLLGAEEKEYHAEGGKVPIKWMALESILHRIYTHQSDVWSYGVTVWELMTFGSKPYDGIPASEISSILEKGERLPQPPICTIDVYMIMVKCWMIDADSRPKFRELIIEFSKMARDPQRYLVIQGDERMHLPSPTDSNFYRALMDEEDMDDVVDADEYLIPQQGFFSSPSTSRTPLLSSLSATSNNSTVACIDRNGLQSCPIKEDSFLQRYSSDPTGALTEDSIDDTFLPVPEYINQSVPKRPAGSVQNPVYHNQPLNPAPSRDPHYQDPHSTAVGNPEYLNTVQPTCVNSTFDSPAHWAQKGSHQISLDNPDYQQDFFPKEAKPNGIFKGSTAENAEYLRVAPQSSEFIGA
UniProt P00533, 669-1210: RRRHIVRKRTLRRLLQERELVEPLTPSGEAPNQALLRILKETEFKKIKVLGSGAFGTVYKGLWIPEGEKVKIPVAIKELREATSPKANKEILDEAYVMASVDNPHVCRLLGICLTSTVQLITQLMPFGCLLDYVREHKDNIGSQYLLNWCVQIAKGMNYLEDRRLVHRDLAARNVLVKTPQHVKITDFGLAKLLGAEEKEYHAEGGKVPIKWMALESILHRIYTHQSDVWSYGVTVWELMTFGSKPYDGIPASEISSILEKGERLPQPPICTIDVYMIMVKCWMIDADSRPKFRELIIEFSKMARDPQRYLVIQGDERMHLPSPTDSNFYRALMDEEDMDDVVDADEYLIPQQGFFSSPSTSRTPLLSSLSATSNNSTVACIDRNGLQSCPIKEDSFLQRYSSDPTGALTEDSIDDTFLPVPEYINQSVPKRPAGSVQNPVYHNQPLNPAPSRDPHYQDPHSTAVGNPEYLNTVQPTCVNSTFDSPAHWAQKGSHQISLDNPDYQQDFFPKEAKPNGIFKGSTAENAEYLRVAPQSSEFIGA
UniProt P35968, 834-1162 limits assumed: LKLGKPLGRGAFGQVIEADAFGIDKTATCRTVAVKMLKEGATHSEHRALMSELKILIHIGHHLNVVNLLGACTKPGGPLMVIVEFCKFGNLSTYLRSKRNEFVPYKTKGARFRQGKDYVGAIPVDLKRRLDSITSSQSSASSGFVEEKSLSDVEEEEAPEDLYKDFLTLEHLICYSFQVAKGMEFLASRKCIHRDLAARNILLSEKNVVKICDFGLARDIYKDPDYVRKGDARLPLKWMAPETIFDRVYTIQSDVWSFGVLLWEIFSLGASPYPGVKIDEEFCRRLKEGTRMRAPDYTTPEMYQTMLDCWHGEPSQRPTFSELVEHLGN

Tests used:
MCF7 = experiment: Inhibition of cancer cell growth as measured by cell number, MCF7; type: cell-based; details: Homo sapiens, MCF7, 48 h, read-out: IC50 MCF7;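 also: MCF7 was included as a line with little or no EGFR or HER2/neu expression, in contrast to the receptor-overexpressing lines of the panel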
LOX = experiment: Inhibition of cancer cell growth as measured by cell number, LOX; type: cell-based; details: Homo sapiens, 48 h;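 also: LOX cells served as a line with low or absent EGFR and HER2/neu expression, in contrast to receptor-overexpressing lines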
SW620 = experiment: Inhibition of cancer cell growth as measured by cell number, SW620; type: cell-based, human; details: Homo sapiens, SW-620, 48 h, read-out: IC50 SW620, cell number, Sulforhodamine B, 48 hours exposure; Table 4;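 also: SW620 was included as a cell line with little or no EGFR or HER2/neu expression, in contrast to receptor-overexpressing lines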
SKBR3 = experiment: Inhibition of cancer cell growth as measured by cell number, SKBR3; type: cell-based, human; details: Homo sapiens, SK-BR-3, 48 h, read-out: IC50 SKBR3, cell number, Sulforhodamine B, 48 hours exposure; Table 7;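 also: SK-BR-3 cells were selected as a line overexpressing HER2/neu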
MIP = experiment: Inhibition of cancer cell growth as measured by cell number, MIP; type: cell-based; details: Homo sapiens, Sulforhodamine B, 48 hours exposure, Table 4
CCL228 = experiment: Inhibition of cancer cell growth as measured by cell number, CCL228; type: cell-based; details: Homo sapiens, 48 h, read-out: IC50 CCL228
CACO2 = experiment: Inhibition of cancer cell growth as measured by cell number, CACO2; type: cell-based; details: Homo sapiens, Caco-2, 48 h, read-out: IC50 CACO2
A431 [1] = experiment: Inhibition of cancer cell growth as measured by cell number, A431; type: cell-based, human; details: for IC50: Homo sapiens, A-431, 48 h, read-out: IC50 A431, cell number, Sulforhodamine B, 48 hours exposure;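 as to all read-outs here: human A431 line, picked because it overexpresses epidermal growth factor receptor (EGFR)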
SW948 = experiment: Inhibition of cancer cell growth as measured by cell number, SW948; type: cell-based; details: Homo sapiens, SW948, 48 h, read-out: IC50 SW948
LNCAP = experiment: Inhibition of cancer cell growth as measured by cell number, LNCAP; type: cell-based; details: Homo sapiens, 48 h, read-out: IC50 LNCAP
LX1 = experiment: Inhibition of cancer cell growth as measured by cell number, LX1; type: cell-based; details: Homo sapiens, LX-1, 48 h, read-out: IC50 LX1
[2] = molecular target: Epithelial Cell Kinase (ECK) (Homo sapiens, UniProt P29317); experiment: biochemical
HTB161 = experiment: Inhibition of cancer cell growth as measured by cell number, HTB161; type: cell-based; details: Homo sapiens, 48 h, read-out: IC50 HTB161
COLO205 = experiment: Inhibition of cancer cell growth as measured by cell number, COLO205; type: cell-based; details: Homo sapiens, COLO 205, 48 h, read-out: IC50 COLO205
A549 = experiment: Inhibition of cancer cell growth as measured by cell number, A549; type: cell-based; details: Homo sapiens, A549, 48 h, read-out: IC50 A549
HCT15 = experiment: Inhibition of cancer cell growth as measured by cell number, HCT15; type: cell-based; details: Homo sapiens, HCT-15, 48 h, read-out: IC50 HCT15
HL60 = experiment: Inhibition of cancer cell growth as measured by cell number, HL60; type: cell-based; details: Homo sapiens, HL-60, 48 h, read-out: IC50 HL60
PC3 = experiment: Inhibition of cancer cell growth as measured by cell number, PC3; type: cell-based; details: Homo sapiens, PC-3, 48 h, read-out: IC50 PC3
A2780DDP = experiment: Inhibition of cancer cell growth as measured by cell number, A2780DDP; type: cell-based; details: Homo sapiens, 48 h, read-out: IC50 A2780DDP
A431 [3] = experiment: Inhibition of cell growth by incorporation of [3H]-thymidine, A431; type: cell-based; details: Homo sapiens, A-431, read-out: IC50 A431
CX1 = experiment: Inhibition of cancer cell growth as measured by cell number, CX1; type: cell-based; details: Homo sapiens, CX-1, 48 h, read-out: IC50 CX1
NHEK = experiment: Inhibition of cell growth by incorporation of [3H]-thymidine, NHEK; type: cell-based; details: Homo sapiens, read-out: IC50 NHEK
A27805 = experiment: Inhibition of cancer cell growth as measured by cell number, A27805; type: cell-based; details: Homo sapiens, 48 h, read-out: IC50 A27805
DU145 = experiment: Inhibition of cancer cell growth as measured by cell number, DU145; type: cell-based; details: Homo sapiens, DU-145, 48 h, read-out: IC50 DU145
CCRF-CFM = experiment: Inhibition of cancer cell growth as measured by cell number, CCRF-CFM; type: cell-based; details: Homo sapiens, 48 h, read-out: IC50 CCRF-CFM
NEC = experiment: Inhibition of cancer cell growth as measured by cell number, NEC; type: cell-based; details: Homo sapiens, 48 h, read-out: IC50 NEC
[4] = molecular target: epidermal growth factor receptor kinase (Homo sapiens, UniProt P00533); experiment: biochemical
B7474 = experiment: Inhibition of cancer cell growth as measured by cell number, B7474; type: cell-based; details: Homo sapiens, 48 h, read-out: IC50 B7474
[5] = molecular target: T1, His-tagged cytoplasmic domain of EGFR (Homo sapiens, UniProt P00533); experiment: Inhibition of Epidermal Growth Factor Receptor Kinase (EGF-R) using recombinant enzyme; type: biochemical; details: RR-SRC peptide, average of the number of tests;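 also: radiometric kinase assay measuring radiolabeled phosphate transfer from ATP onto the peptide tyrosine by scintillation counting, control is reaction without compound, background subtracted, IC50 from dose-response curve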
T1 construct: containing the EGFR cDNA encoding amino acids 645 - 1186 preceded by Met-Ala-(His)6; made in house; host or cells: Sf9 cells, recombinant baculovirus vHcEGFR52

[6] = molecular target: T2, Kinase insert Domain containing Receptor (KDR: the catalytic domain of the VEGF receptor) (Homo sapiens, UniProt P35968); experiment: Inhibition of Kinase insert Domain containing Receptor (KDR); type: biochemical;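 also: KDR phosphorylating a Glu:Tyr 4:1 copolymer with P32- or P33-labelled ATP, Mg++ and vanadate, read as acid-insoluble radiolabel, compared with compound-free reaction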
T2 construct: KDR: the catalytic domain of the VEGF receptor

[7] = Eck IC50, pH 7.2, nonradioactive format

Q: With `N#Cc1cnc2cc3c(cc2c1Nc1cccc(Br)c1)OCO3` [Example 40, 8-[(3-Bromophenyl)amino]-[1,3]-dioxolo[4,5-g]quinoline-7-carbonitrile] as the compound, how does the IC50 (MCF7) read?
A: The IC50 was 3.77 µg/mL (≈ 10.2 µM).

Q: What about the IC50 (LOX; read-out: IC50 LOX) of the same compound?
A: Its IC50 is 1.15 µg/mL (≈ 3.13 µM).

Q: What about the IC50 (SW620) of the same compound?
A: Its IC50 is 2.26 µg/mL (≈ 6.15 µM).

Q: What about the IC50 (SKBR3) of the same compound?
A: Its IC50 is 3.6 µg/mL (≈ 9.77 µM).

Q: What does the source list for `COc1cc2ncc(C#N)c(Nc3cccc(C(F)(F)F)c3)c2cc1OC` [Example 42, 4-[(3-Trifluoromethylphenyl)amino]-6,7-dimethoxy-3-quinolinecarbonitrile]?
A: IC50 (LOX; read-out: IC50 LOX, cell number, Sulforhodamine B, 48 hours exposure, Table 6): 5.15 µg/mL (≈ 13.8 µM); IC50 (MIP): 11 µg/mL (≈ 29.5 µM); IC50 (CCL228): 8.93 µg/mL (≈ 23.9 µM); IC50 (CACO2): 3.84 µg/mL (≈ 10.3 µM); IC50 (A431 [1]; Table 6): 3.28 µg/mL (≈ 8.79 µM); IC50 (SW948): 17.2 µg/mL (≈ 46 µM); IC50 (LNCAP): 2.39 µg/mL (≈ 6.41 µM); IC50 (LX1): 18.4 µg/mL (≈ 49.2 µM); IC50 [2, 7]: > 53.6 µM; IC50 (HTB161): 5.18 µg/mL (≈ 13.9 µM); IC50 (COLO205): 5.97 µg/mL (≈ 16 µM); IC50 (A549): 7.57 µg/mL (≈ 20.3 µM); IC50 (HCT15): 6.71 µg/mL (≈ 18 µM); IC50 (HL60): 5.43 µg/mL (≈ 14.5 µM); IC50 (PC3): 29.1 µg/mL (≈ 77.9 µM); IC50 (A2780DDP): 8.22 µg/mL (≈ 22 µM); IC50 (A431 [3]): 7 µM; IC50 (CX1): 9.13 µg/mL (≈ 24.5 µM); IC50 (NHEK): 10 nM; IC50 (A27805): 6.43 µg/mL (≈ 17.2 µM); IC50 (DU145): 5.56 µg/mL (≈ 14.9 µM)

Q: Which IC50 (CCRF-CFM) does the source give for `COc1ccc(Nc2c(C#N)cnc3cc(OC)c(OC)cc23)cc1OC` [Example 43, 4-[(3,4-Dimethoxyphenyl)amino]-6,7-dimethoxy-3-quinolinecarbonitrile] here?
A: Its IC50 is 3.59 µg/mL (≈ 9.83 µM).

Q: And the IC50 (MIP)?
A: The IC50 was 3.3 µg/mL (≈ 9.02 µM).

Q: And the IC50 (CACO2)?
A: The IC50 was 2.58 µg/mL (≈ 7.06 µM).

Q: And the IC50 (A431 [1]; Table 6)?
A: The IC50 was 1.21 µg/mL (≈ 3.31 µM).

Q: What about the IC50 (SW948) of the same compound?
A: Its IC50 is 4.76 µg/mL (≈ 13 µM).

Q: What about the IC50 (LX1) of the same compound?
A: Its IC50 is 6.12 µg/mL (≈ 16.8 µM).

Q: What about the IC50 [2, 7] of the same compound?
A: Its IC50 is > 54.7 µM.

Q: And the IC50 (HTB161)?
A: The IC50 was 0.534 µg/mL (≈ 1.46 µM).

Q: What about the IC50 (COLO205) of the same compound?
A: The IC50 was 4.18 µg/mL (≈ 11.4 µM).

Q: And the IC50 (A549)?
A: Its IC50 is 5.72 µg/mL (≈ 15.7 µM).

Q: What about the IC50 (HCT15) of the same compound?
A: The IC50 was 0.823 µg/mL (≈ 2.25 µM).

Q: What about the IC50 (HL60) of the same compound?
A: The IC50 was 1.66 µg/mL (≈ 4.53 µM).

Q: What about the IC50 (PC3) of the same compound?
A: The IC50 was 7.02 µg/mL (≈ 19.2 µM).

Q: What about the IC50 (A2780DDP) of the same compound?
A: Its IC50 is 4.45 µg/mL (≈ 12.2 µM).

Q: What about the IC50 (A431 [3]) of the same compound?
A: The IC50 was 10 µM.

Q: And the IC50 (NEC)?
A: The IC50 was 4.55 µg/mL (≈ 12.5 µM).

Q: And the IC50 [4]?
A: The IC50 was 8 µM.

Q: What about the IC50 (NHEK) of the same compound?
A: Its IC50 is 4000 nM.

Q: And the IC50 (B7474)?
A: Its IC50 is 8.18 µg/mL (≈ 22.4 µM).

Q: What about the IC50 (A27805) of the same compound?
A: The IC50 was 3.42 µg/mL (≈ 9.37 µM).

Q: What about the IC50 (DU145) of the same compound?
A: The IC50 was 3.13 µg/mL (≈ 8.57 µM).

Q: What does the source list for `C=C(CN1CCOCC1)C(=O)Nc1ccc2ncc(C#N)c(Nc3ccc(F)c(Cl)c3)c2c1` [Example 148, N-{4-[(3-chloro-4-fluorophenyl)amino]-3-cyano-6-quinolinyl}-2-morpholin-4-ylmethyl-2-propenamide]?
A: IC50 (A431 [1]; Table 8): 0.195 µg/mL (≈ 0.419 µM); IC50 [2, 7]: > 42.9 µM; IC50 [5]: 1 nM

Q: Which IC50 (A431 [1]; Table 8) does the source give for `CCOc1cc2ncc(C#N)c(Nc3cccc(Br)c3)c2cc1NC(=O)C=CCN(C)C` [Example 216, 4-Dimethylamino-but-2-enoic acid [4-(3-bromo-phenylamino)-3-cyano-7-ethoxy-quinolin-6-yl]-amide] here?
A: The IC50 was 0.032 µg/mL (≈ 0.0647 µM).

Q: And the “IC50 A431” value (A431 [1]; cell number, Sulforhodamine B, 48 hours exposure, Table 8)?
A: Its value is 0.024 µg/mL (≈ 0.0485 µM).

Q: What about the IC50 [2, 7] of the same compound?
A: Its IC50 is > 40.5 µM.

Q: What about the IC50 [5] of the same compound?
A: Its IC50 is 0.6 nM.

Q: Which results are given for `CCOc1cc2ncc(C#N)c(Nc3cccc(Br)c3)c2cc1NC(=O)C=CCN1CCOCC1` [Example 218, 4-Morpholin-4-yl-but-2-enoic acid [4-(3-bromo-phenylamino)-3-cyano-7-ethoxy-quinolin-6-yl]-amide]?
A: IC50 [2, 7]: > 37.3 µM; IC50 [5]: 17 nM

Q: Which IC50 ([2]; Eck IC50) does the source give for `COc1cc2ncc(C#N)c(Nc3ccc(C)c(Br)c3)c2cc1OC` [Example 248, 4-(3-Bromo-4-methyl-phenylamino)-6.7-dimethoxy-quinoline-3-carbonitrile] here?
A: Its IC50 is 25.1 µM.

Q: And the IC50 [6]?
A: The IC50 was 25.1 µM.

Q: `COc1cc2ncc(C#N)c(Nc3cccnc3)c2cc1OC` [Example 293, 6,7-Dimethoxy-4-(pyridin-3-ylamino)-quinoline-3-carbonitrile] was tested. Which IC50 ([2]; Eck IC50) did it give?
A: Its IC50 is 32.6 µM.

Q: What about the IC50 [6] of the same compound?
A: The IC50 was 32.6 µM.
